# Measurements taken from paper PMC4956214 (PLoS ONE, 2016).
# Sequences of proteins named here, by UniProt entry; tags and fusion partners are left off. Residues count along the entry.
# UniProt P01308, 25-54, chain 1 of 2: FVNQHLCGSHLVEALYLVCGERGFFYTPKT
# UniProt P01308, 90-110, chain 2 of 2: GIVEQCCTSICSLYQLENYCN
# B1: peptide analogue 1 (SjIR-1 L1) (peptide)
# peptide: NLRESNNLSSLTNCSTIHGTLVIRN
# B2: peptide analogue 9 (HIR FnIII-2, α655-670; positive control) (peptide)
# peptide: SRTWSPPFESEDSQKH
# Key:
# human insulin [1] = target: human insulin (Homo sapiens, UniProt P01308); assay: BLI; Octet RED, 25°C, 96-well microplates; biotinylated human insulin (25 μg/ml) immobilised on Streptavidin Biosensors; peptides in solution in a dilution series; kinetic buffer (1 mM phosphate, 15 mM NaCl, 0.1 mg/ml BSA, 0.002% Tween-20); association 1000 sec, dissociation 1000 sec; double reference subtraction (BSA reference)
# human insulin [2] = target: T1, human insulin (human, UniProt P01308 25-54; P01308 90-110, biotinylated with a NHS-PEO4-biotin kit; residues and chain not stated | biotinylated with a NHS-PEO4-biotin kit; residues and chain not stated); assay: BLI; conditions: both partners purified
# human insulin [3] = target: T1, human insulin; assay: BLI; Octet RED, 25°C, 96-well microplates; biotinylated human insulin (25 μg/ml) immobilised on Streptavidin Biosensors; peptides in solution in a dilution series; kinetic buffer (1 mM phosphate, 15 mM NaCl, 0.1 mg/ml BSA, 0.002% Tween-20); association 1000 sec, dissociation 1000 sec; double reference subtraction (BSA reference); conditions: both partners purified
molecule,measurement,setting,value
peptide analogue 29 (HIR),Kd,human insulin [1],44.8 µM
B1,Kd,human insulin [2],0.224 µM
B2,Kd,human insulin [3],63.6 µM
